# From publication PMC6545551 (ACS Omega, 2019)
# By UniProt entry, the sequences of proteins in these tests, tags left out. Residues count along the entry.
# UniProt P23219, 24-599: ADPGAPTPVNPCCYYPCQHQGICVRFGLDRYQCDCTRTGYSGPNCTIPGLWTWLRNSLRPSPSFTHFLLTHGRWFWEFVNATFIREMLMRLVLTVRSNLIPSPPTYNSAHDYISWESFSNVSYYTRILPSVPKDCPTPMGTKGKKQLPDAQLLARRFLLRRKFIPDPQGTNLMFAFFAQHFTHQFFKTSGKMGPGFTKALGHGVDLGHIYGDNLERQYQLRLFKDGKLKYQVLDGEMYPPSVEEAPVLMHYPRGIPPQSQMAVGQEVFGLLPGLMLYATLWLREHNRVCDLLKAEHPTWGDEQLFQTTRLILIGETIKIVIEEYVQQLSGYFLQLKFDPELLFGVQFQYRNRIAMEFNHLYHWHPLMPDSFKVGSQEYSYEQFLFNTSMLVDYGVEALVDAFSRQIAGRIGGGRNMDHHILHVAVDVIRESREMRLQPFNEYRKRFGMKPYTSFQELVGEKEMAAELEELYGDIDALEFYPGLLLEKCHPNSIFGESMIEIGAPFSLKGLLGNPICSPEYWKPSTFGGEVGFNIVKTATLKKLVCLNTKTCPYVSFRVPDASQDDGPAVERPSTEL
# Target: COX-1 in OVCAR3 cells (Homo sapiens, UniProt P23219)
# Test: Inhibition of COX-1 in intact OVCAR3 cells
# Format: cell-based
structure (smiles),measurement,value
"CS(=O)(=O)c1ccc(C2=C(c3ccccc3)C(=O)OC2)cc1 [Refecoxib, reference compound]",IC50,> 5 µM
